Assay results published in ChEMBL document CHEMBL4011631, “Trisubstituted Pyridinylimidazoles as Potent Inhibitors of the Clinically Resistant L858R/T790M/C797S EGFR Mutant: Targeting of Both Hydrophobic Regions and the Phosphate Binding Site” (J Med Chem, 2017).

Legend:
[1] = tested on: Epidermal growth factor receptor (Homo sapiens), P00533 [L858R]
[2] = tested on: Epidermal growth factor receptor (Homo sapiens), P00533 [L858R,T790M]

Row | Compound | Kinact [1] [min⁻¹] | Kinact [2] [min⁻¹]
1 | C=CC(=O)Nc1ccc(OC)c(Nc2cc(-c3[nH]c(CCCO)nc3-c3ccc(F)cc3)ccn2)c1 | 0.1 | 0.13
2 | C=CC(=O)NCCSc1nc(-c2ccc(F)cc2)c(-c2ccnc(Nc3ccccc3)c2)[nH]1 | 0.04 | 0.09
